## Antibody variant affinities, Ab-14 heavy chain, assay B

Binding partner: SARS-CoV-2 spike HR2 peptide, sequence PDVDLGDISGINAS.

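The starting antibody came from a phage panning campaign against this peptide. This is the validation round: designs drawn from the data on random variants, tested in the same kind of assay. Their group label is 14H_En_Gibbs (En: ensemble of fine-tuned language models; Gibbs: Gibbs sampling). In AlphaSeq, yeast of one mating type display the scFv and yeast of the other type display the target. Mating (16 h, 30 °C) was followed by selection of diploids and sequencing of their barcodes. Scores were corrected for input abundance and mapped to Kd with protein pairs of known affinity run in the same pool. Mating was done six times.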

Parent: Ab-14, a human scFv built as VH, three GGGGS repeats, VL. Only the CDRs of the heavy chain vary.
VH: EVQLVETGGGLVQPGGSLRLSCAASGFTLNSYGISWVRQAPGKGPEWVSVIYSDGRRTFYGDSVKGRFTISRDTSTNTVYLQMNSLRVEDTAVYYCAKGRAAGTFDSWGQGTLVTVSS
VL: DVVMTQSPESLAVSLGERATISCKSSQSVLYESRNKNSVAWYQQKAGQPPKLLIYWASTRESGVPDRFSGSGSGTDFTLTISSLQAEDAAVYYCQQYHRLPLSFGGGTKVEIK

The parent's heavy chain CDRs are GFTLNSYGIS, VIYSDGRRTFYGDSVK, GRAAGTFDS; each variant's own CDRs replace them letter for letter.
The read-out is the apparent dissociation constant on a log10 scale (nM): the lower, the stronger.
Averages over replicates are reported, and they cover detected replicates only.
A pair that was not seen in that replicate is written "n.d."; this usually means weak binding, but a binder can also be missed.
The parent sequence was in this pool as ten entries: three were never detected, three once, and four in most replicates, with averages from 0.34 to 2.37.
Values of this round are not directly comparable with the first-round values of the same sequences.
Three control strains display no target. For all heavy chain designs, 1% of the pairings with them gave a signal, with a median of 2.08 and one signal in twenty below 0.84, so weak values seen in few replicates may be background. The control count says in how many pairings with the empty strains this scFv gave a signal, with their mean in brackets.
In the paper, a design with two or fewer of six values counts as a poor binder.

CDR-H1,CDR-H2,CDR-H3,log10 Kd (nM) by replicate,"mean, log10 nM",control signals
GFDLQEMGIS,VIYADGARKSYTNSVK,GVVGGQMDV,n.d. / n.d. / n.d. / n.d. / n.d. / n.d.,n.d.,0 of 18
GIDMQEYGIS,VIYADGLRAAYSDNFK,GGLGGTFDM,0.08 / -0.02 / 0.32 / n.d. / n.d. / -0.27,0.03,0 of 18
GFDVMEYGIS,VIYADGMRQAYTNKVK,GNNGSSGLF,n.d. / n.d. / n.d. / n.d. / n.d. / n.d.,n.d.,0 of 18
GFDLDEYGVS,VIYADGQRTYYTNAVK,GEISAGFLI,n.d. / n.d. / n.d. / n.d. / n.d. / n.d.,n.d.,0 of 18
GFDLDEYGIS,VIYADGIRYHYQDSVK,GNVVGSVLY,n.d. / n.d. / n.d. / n.d. / n.d. / n.d.,n.d.,0 of 18
GNDLDEYGIS,VIYADGSRTSYIDKVK,GLVGGMLIV,0.70 / 1.96 / 0.79 / 2.32 / n.d. / 1.11,1.38,0 of 18
GDKLEAYGIS,VIYADGQRAAYVDKVK,GQHGGMFDQ,n.d. / n.d. / n.d. / n.d. / 2.46 / n.d.,2.46,0 of 18
GKDIDEYGIS,VIYADGRRTFVADSVK,GINSDFVLA,n.d. / n.d. / n.d. / n.d. / n.d. / n.d.,n.d.,0 of 18
GFDLEEYGIS,VIYADGTRTMYLPTVK,GVNGGTFQM,n.d. / n.d. / n.d. / n.d. / n.d. / n.d.,n.d.,0 of 18
GFDLNEYGVS,VIYADGIRTAYADSFK,GNVGVAFFQ,n.d. / n.d. / n.d. / n.d. / n.d. / n.d.,n.d.,0 of 18
GFWLDEYGIS,VIYADGMRTAYKNSVK,GSFTYNFDV,n.d. / n.d. / n.d. / n.d. / n.d. / n.d.,n.d.,0 of 18
GDGLEEYGIS,VIYADGMRTYYEPSVK,GNVNGVMFI,n.d. / n.d. / n.d. / n.d. / n.d. / n.d.,n.d.,2 of 18 (2.64)
GFDLQEYGIS,VIYADGSRAAYVQNVK,GLTLDSYVV,n.d. / n.d. / n.d. / n.d. / n.d. / n.d.,n.d.,1 of 18 (3.03)
GFNLEEYGIS,VIYADGDRMSYDNAVK,GQISGVIDM,n.d. / n.d. / n.d. / n.d. / n.d. / n.d.,n.d.,0 of 18
GFSIDEQGIS,VIYADGIRASYAEKVK,GQYGGDFIE,n.d. / n.d. / n.d. / n.d. / n.d. / n.d.,n.d.,0 of 18
GKDLEEYGIS,VIYADGVRAAYADSVK,GINMDIMTV,n.d. / n.d. / n.d. / n.d. / n.d. / n.d.,n.d.,0 of 18
GFSLDEYGIS,VIYADGVRKSYMNSVK,GNITGWLFA,n.d. / n.d. / n.d. / n.d. / n.d. / n.d.,n.d.,0 of 18
GFDLNEYGIS,VIYADGIRTAYVSKVK,GRDIINVLF,n.d. / n.d. / n.d. / n.d. / n.d. / n.d.,n.d.,0 of 18
GFDLNEYGIS,VIYADGVRSFYADNAK,GNVGIFMEV,n.d. / n.d. / n.d. / n.d. / n.d. / n.d.,n.d.,0 of 18
EFDLNEYGVS,VIYADGHRTFYADHVK,GQVAGIFFM,n.d. / n.d. / n.d. / n.d. / n.d. / n.d.,n.d.,0 of 18
GFDLLEYGIS,VIYADGSRVAYINNVK,GKNGAIGSN,0.60 / 0.76 / 0.86 / 0.93 / 0.56 / 0.77,0.75,0 of 18
GFDLAEYGIS,VIYADGQRKSYADSFK,GRWSGQVIM,n.d. / n.d. / n.d. / n.d. / n.d. / n.d.,n.d.,0 of 18
GNDINEYGIS,VIYADGMRTAYLNDVK,GQMGGLFIM,n.d. / n.d. / n.d. / n.d. / n.d. / n.d.,n.d.,0 of 18
GFDFNEYGIS,VIYADGKRTAYADKVK,GGKDAFTDI,n.d. / n.d. / n.d. / n.d. / n.d. / n.d.,n.d.,2 of 18 (2.37)
GFDIEEYGIS,VIYADGSRTSYSDSVK,SGRTFNMDL,n.d. / n.d. / n.d. / n.d. / n.d. / n.d.,n.d.,0 of 18
GFQINEYGIS,VIYADGLRAAYSQDVK,GMDTGDFMD,n.d. / n.d. / n.d. / n.d. / n.d. / n.d.,n.d.,0 of 18
GFDIEEYGIS,VIYADGQRTMYTPNVK,GNITGLVDI,n.d. / n.d. / n.d. / n.d. / n.d. / n.d.,n.d.,0 of 18
GQSLDDYGIS,VIYADGQRNAAADEVK,GENAGTFDI,n.d. / n.d. / n.d. / n.d. / n.d. / 2.33,2.33,1 of 18 (1.31)
GFDLDEMGIS,VIYADGVRTAYIDQVK,GMKGTFMNV,n.d. / n.d. / n.d. / n.d. / n.d. / n.d.,n.d.,1 of 18 (1.43)
GFDLMEYGIS,VIYADGKRTGYTDKVK,GSFGDTGKT,n.d. / n.d. / n.d. / n.d. / n.d. / n.d.,n.d.,2 of 18 (1.99)
GFKINEYGIS,VIYADGQRVAYTNSFK,GTQAGQFFN,n.d. / n.d. / n.d. / n.d. / n.d. / n.d.,n.d.,0 of 18

Excerpt, the first 2 entries:

CDR-H1	CDR-H2	CDR-H3	log10 Kd (nM) by replicate	mean, log10 nM	control signals
GFDLQEMGIS	VIYADGARKSYTNSVK	GVVGGQMDV	n.d. / n.d. / n.d. / n.d. / n.d. / n.d.	n.d.	0 of 18
GIDMQEYGIS	VIYADGLRAAYSDNFK	GGLGGTFDM	0.08 / -0.02 / 0.32 / n.d. / n.d. / -0.27	0.03	0 of 18

Values reported by Li et al. 2023, doi:10.1038/s41467-023-39022-2 (FLAb copy).